Measurements from US7598223B2, “Methods for producing target cell reactive lymphocytes” (The Board of Trustees of the Leland Stanford Junior …, priority 2004, dated 2009).

Target: tetramer+ CD8+ T cells of patient 520 (their T cell receptors)
Assay: flow cytometry, tetramer staining of patient PBMC

## HLA-A*0201/M26 peptide tetramer-phycoerythrin (from UniProt P61769 21-119) (peptide-MHC)
  estimated percentage of total CD8+ cells that are also tetramer+/CD8+: 0.12%
